# Tests used:
# Sequences of proteins named here, by UniProt entry; tags and fusion partners are left off.
# UniProt P61169, whole entry: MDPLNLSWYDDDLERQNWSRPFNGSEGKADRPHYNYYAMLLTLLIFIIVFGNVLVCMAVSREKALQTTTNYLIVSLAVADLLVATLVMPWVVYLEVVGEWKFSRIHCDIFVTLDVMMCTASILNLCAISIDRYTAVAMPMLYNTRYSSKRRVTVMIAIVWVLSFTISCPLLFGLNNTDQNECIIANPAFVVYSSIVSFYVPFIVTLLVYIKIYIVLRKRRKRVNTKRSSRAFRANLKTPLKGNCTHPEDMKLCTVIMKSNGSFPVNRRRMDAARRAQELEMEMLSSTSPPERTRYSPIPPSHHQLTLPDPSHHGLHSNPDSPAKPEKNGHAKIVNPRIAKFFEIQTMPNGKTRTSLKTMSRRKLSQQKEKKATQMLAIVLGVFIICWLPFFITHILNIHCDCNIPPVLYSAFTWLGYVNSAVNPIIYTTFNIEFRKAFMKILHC
# UniProt P23977, whole entry: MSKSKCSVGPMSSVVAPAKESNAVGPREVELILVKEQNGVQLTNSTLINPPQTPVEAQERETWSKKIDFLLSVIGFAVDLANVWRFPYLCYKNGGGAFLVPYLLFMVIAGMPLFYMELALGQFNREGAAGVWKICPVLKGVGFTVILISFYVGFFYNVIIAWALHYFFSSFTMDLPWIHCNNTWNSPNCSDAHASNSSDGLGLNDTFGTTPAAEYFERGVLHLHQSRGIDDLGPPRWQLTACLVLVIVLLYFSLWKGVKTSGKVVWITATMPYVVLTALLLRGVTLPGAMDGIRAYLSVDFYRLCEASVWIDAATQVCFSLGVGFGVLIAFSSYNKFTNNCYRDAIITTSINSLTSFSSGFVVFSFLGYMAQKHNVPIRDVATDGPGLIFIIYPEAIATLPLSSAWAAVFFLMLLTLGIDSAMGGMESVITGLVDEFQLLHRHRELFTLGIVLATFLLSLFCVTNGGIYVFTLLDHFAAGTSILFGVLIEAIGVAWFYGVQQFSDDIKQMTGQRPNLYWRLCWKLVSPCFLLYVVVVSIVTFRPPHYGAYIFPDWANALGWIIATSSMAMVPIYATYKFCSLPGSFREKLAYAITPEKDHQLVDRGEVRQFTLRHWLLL
# D(2) dopamine receptor = D(2) dopamine receptor (Rattus norvegicus, UniProt P61169)
# [1] = target: Norepinephrine transporter (Rattus norvegicus, UniProt Q9JIA2)
# [2] = target: Sodium-dependent dopamine transporter (Rattus norvegicus, UniProt P23977)
Structure (SMILES),Ki (D(2) dopamine receptor),Ki [1],Ki [2]
"CCc1nn(CCCN2CCN(c3cccc(Cl)c3)CC2)c(=O)n1CCOc1ccccc1 [2-{3-[4-(3-chlorophenyl)piperazin-1-yl]propyl}-5-ethyl-4-(2-phenoxyethyl)-2,4-dihydro-3H-1,2,4-triazol-3-one]",180 nM,,
COc1ccc(C(CN(C)C)C2(O)CCCCC2)cc1 (stereo not drawn) [NSC_62923],,640 nM,2800 nM
